Reference: ChEMBL document CHEMBL4732134, “Identification of N-phenyl-3-methoxy-4-pyridinones as orally bioavailable H receptor antagonists and β-amyloid aggregation inhibitors for the treatment of Alzheimer's disease” (Eur J Med Chem, 2021)

Sequences of proteins named here, by UniProt entry; tags and fusion partners are left off. A change or cut given only in a name is not applied to a line headed by its entry.
UniProt Q9Y5N1: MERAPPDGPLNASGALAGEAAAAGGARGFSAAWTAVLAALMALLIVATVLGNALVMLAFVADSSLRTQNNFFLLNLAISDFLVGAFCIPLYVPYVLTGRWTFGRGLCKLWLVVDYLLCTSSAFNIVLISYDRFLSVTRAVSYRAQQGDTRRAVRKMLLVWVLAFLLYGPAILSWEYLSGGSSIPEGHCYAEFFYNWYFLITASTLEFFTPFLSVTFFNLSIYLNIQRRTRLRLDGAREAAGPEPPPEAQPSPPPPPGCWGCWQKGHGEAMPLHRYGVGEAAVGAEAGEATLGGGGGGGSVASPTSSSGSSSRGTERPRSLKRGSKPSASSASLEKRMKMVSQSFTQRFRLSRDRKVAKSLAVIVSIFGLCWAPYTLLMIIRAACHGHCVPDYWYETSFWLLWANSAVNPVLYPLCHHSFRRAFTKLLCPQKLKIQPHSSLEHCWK

Target: Histamine H3 receptor (Homo sapiens, UniProt Q9Y5N1)
Assay: Antagonist activity at human histamine H3 receptor expressed in HEK293 cells preincubated for 5 mins followed by forskolin-stimulation and measured after 5 hrs by CRE-driven luciferase reporter gene assay
Assay type: functional, cell-based

NC(=NCc1ccc(Cl)cc1)SCCCc1cnc[nH]1 [CLOBENPROPIT]
IC50: 1.15 nM
